Reference: patent US20250154195A1, “NOVEL BETULIN DERIVATIVES, AND THEIR MANUFACTURING METHOD AND USE AS SURFACTANT” (priority 2022, published 2025)

Experiment: Critical micelle concentration (CMC) in water by the stalagmometric method (surface tension vs. concentration)
Assay type: physicochemical
Method: (§1) CMC of mono and di-hydrophilic moiety derivatized betulin derivatives were determined according to the stalagmometric method, which is one of the most common methods for measuring surface tension. Samples were prepared at different concentration of mono and di-hydrophilic moiety derivatized betulin derivatives. The surface tension of samples was calculated from the number of drops obtained by stalagmometer. CMC was calculated by plotting surface tensions vs. concentrations of sample.
CMCs of mono-glycosylated betulin, di-glycosylated betulin, mono-(poly) ethoxylated-carbonated betulin and di-(poly) ethoxylated betulin were determined in water, respectively. Surface tensions of samples obtained in above examples were determined at different concentrations according to the stalagmometric method. […]
as §1, with “mono-hydrophilic” for “mono and di-hydrophilic”, “Samples were prepared at different concentration of mono and di-hydrophilic moiety derivatized betulin derivatives.” left out
CMCs of two mono-hydrophilic functionalized betulin at C28-hydroxy and C3-hydroxy group were determined in water, respectively. […]

Substance | CMC
di-(poly) ethoxylated betulin | 0.7 mM
mono-(poly) ethoxylated-carbonated betulin | 0.6 mM
